Data published in patent publication US5696231A, “N-substituted glycine derivatives as enzyme inhibitors” (Corvas International, Inc., priority 1994, dated 1997).

Amino acid sequences for entries named in this document (tags omitted). Residues count along the entry.
UniProt P00742, 235-488 limits assumed: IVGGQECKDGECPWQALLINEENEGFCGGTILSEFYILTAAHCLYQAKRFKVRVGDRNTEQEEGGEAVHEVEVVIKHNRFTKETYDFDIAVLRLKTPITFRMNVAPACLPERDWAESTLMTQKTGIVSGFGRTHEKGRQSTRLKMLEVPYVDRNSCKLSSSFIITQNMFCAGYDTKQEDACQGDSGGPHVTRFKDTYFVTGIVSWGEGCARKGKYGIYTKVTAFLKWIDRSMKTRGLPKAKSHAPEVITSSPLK
UniProt P00742, 41-179 partner limits assumed: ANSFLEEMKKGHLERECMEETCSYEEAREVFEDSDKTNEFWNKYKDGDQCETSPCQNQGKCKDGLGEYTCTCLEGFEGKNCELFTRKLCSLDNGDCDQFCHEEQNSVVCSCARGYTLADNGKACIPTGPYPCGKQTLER

Biological target: purified human factor Xa (Homo sapiens, UniProt P00742)
Test: Determination of IC50: inhibition of factor Xa catalytic activity (chromogenic substrate S2765)
Conditions: purified human factor Xa 0.5 nM, S2765 250 micromolar, 30 minute incubation, HBSA pH 7.5
Description: The compounds of the present invention are dissolved in buffer to give solutions containing concentrations such that assay concentrations range from 0 to 100 micromolar. In the assays for factor Xa, thrombin, plasmin, t-PA, aPC, chymotrypsin, and trypsin, a chromogenic synthetic substrate is added to a solution containing test compound and the enzyme of interest and the residual catalytic activity of that enzyme is determined spectrophometrically. The IC50 of a compound of the present invention is determined from the rate of substrate turnover caused by the specific enzyme being measured. IC50 is that concentration of test compound giving 50% inhibition of the rate of substrate turnover. Likewise, the Ki of a compound of the present invention is determined from the rate of substrate turnover caused by the specific enzyme being measured at various enzyme concentrations. Ki is that concentration of test compound giving 50% inhibition of the rate of substrate turnover. Examples A and B provide an exemplar of the in vitro assays used to select the compounds of the present invention.
The ability of the compounds of the present invention to act as inhibitors of factor Xa catalytic activity was assessed by determining the concentration which inhibited enzyme activity by 50%, (IC50), using the purified human factor Xa.
The buffer used for all assays was HBSA (10 mM HEPES, pH 7.5, 150 mM sodium chloride, 0.1% bovine serum albumin).
The assay was conducted by combining in appropriate wells of a Corning microtiter plate, 50 microliters of HBSA, 50 microliters of the test compound diluted in HBSA (or HBSA alone for uninhibited velocity measurement), and 50 microliters of the enzyme diluted in HBSA (prepared from purified human factor X obtained from Enzyme Research Laboratories according to the method described by Bock, P. E. et al. (1989) Archives of Biochem. Biophys. 273: 375. The enzyme was diluted into HBSA prior to the assay in which the final concentration was 0.5 nM). Following a 30 minute incubation at ambient temperature, 50 microliters of the substrate S2765 (N-alpha-benzyloxycarbonyl-D-argininyl-L-glycyl-L-arginine-p-nitroanilide dihydrochloride, obtained from Kabi Diagnostica and made up in deionized water followed by dilution in HBSA prior to the assay) was added to the wells yielding a final total volume of 200 microliters and a final concentration of 250 micromolar (about 5-times Km). The initial velocity of chromogenic substrate hydrolysis was measured by the change in absorbance at 405 nm using a Thermo Max® Kinetic Microplate Reader over a 5 minute period in which less than 5% of the added substrate was utilized. The concentration of added inhibitor which caused a decrease in the initial rate of hydrolysis was defined as the IC50 value.

Compound	IC50 [nM]
CN(CC(=O)NC(C=O)CCCNC(=N)N)C(=O)C(Cc1cccnc1)NS(=O)(=O)CC12CCC(CC1=O)C2(C)C (stereo not shown)	101
CS(=O)(=O)CCC(NS(=O)(=O)Cc1ccccc1)C(=O)N(CC(=O)NC(C=O)CCCNC(=N)N)C1CCCCC1 (stereo not shown)	< 25
CN(CC(=O)NC(C=O)CCCNC(=N)N)C(=O)C(Cc1cccnc1)NS(=O)(=O)Cc1ccccc1 (stereo not shown)	926
COC(=O)c1ccccc1S(=O)(=O)N[C@H](CCCNC(=N)N)C(=O)N(C)CC(=O)N[C@H](C=O)CCCNC(=N)N	32
CN(CC(=O)NC(C=O)CCCNC(=N)N)C(=O)C(CC(=O)O)NS(=O)(=O)CC12CCC(CC1=O)C2(C)C (stereo not shown)	4.6
CN(CC(=O)N[C@H](C=O)CCCNC(=N)N)C(=O)[C@@H](CCS(C)(=O)=O)NS(=O)(=O)Cc1ccccc1	637
CN(CC(=O)N[C@H](C=O)CCCNC(=N)N)C(=O)[C@@H](CCCNC(=N)N)NS(=O)(=O)CC12CCC(CC1=O)C2(C)C (stereo partly shown)	8.2

Further molecules by falling IC50, results first:

IC50 [nM]	Compound
614	CN(CC(=O)NC(C=O)CCCNC(=N)N)C(=O)CNS(=O)(=O)CC12CCC(CC1=O)C2(C)C (stereo not shown)
7.3	CN(CC(=O)NC(C=O)CCCNC(=N)N)C(=O)C(CS(=O)(=O)CC(=O)O)NS(=O)(=O)CC12CCC(CC1=O)C2(C)C (stereo not shown)
1.7	CN(CC(=O)N[C@H](C=O)CCCNC(=N)N)C(=O)[C@@H](CCCNC(=N)N)NS(=O)(=O)Cc1ccccc1
